# Like-named read-outs stand apart in the source and are kept apart here.
# The chains behind the UniProt entries cited, without tags or fusion partners. Residues count along the entry.
# UniProt P78536, 215-824 limits assumed: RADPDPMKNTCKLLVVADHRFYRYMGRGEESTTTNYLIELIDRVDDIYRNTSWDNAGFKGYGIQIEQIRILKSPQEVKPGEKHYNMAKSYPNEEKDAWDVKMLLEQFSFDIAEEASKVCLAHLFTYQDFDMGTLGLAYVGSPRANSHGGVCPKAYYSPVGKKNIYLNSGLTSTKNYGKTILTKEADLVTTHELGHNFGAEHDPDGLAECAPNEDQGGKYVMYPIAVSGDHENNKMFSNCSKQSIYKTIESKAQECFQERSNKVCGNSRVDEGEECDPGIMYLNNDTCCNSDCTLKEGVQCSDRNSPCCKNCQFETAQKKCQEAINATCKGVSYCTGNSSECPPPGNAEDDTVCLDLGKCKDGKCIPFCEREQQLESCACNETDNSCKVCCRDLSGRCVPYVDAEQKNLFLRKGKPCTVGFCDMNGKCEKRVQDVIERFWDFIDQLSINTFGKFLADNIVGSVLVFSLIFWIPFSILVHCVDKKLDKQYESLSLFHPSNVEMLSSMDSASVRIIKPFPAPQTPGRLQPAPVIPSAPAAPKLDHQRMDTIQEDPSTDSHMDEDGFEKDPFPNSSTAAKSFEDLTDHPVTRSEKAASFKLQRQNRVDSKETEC
# Molecular target: TACE enzyme (Homo sapiens (Human), UniProt P78536)
# Assay: Enzymatic assay for TACE inhibition (fluorescent substrate)
# Format: biochemical
SMILES,"IC50 (enzymatic assay, substrate 40 μM, read-out: IC50-TACE) [nM]","IC50 (TACE column of selectivity table, read-out: IC50 (nM) TACE) [nM]"
"Cc1cc(COc2ccc(S(=O)(=O)NC[C@@H](C(=O)NO)N3CCN(C(=O)OCc4ccccc4)CC3)cc2)c2ccccc2n1 [Example 10, Benzyl 4-{(S)-1-hydroxycarbamoyl-2-[4-(2-methylquinolin-4-ylmethoxy)benzenesulfonylamino]ethyl}piperazine-1-carboxylate]",47,–
"Cc1cc(COc2ccc(S(=O)(=O)NC[C@@H](C(=O)NO)N3CCN(Cc4ccc(C(F)(F)F)cc4)CC3)cc2)c2ccccc2n1 [Example 20, (S)-N-Hydroxy-3-[4-(2-methylquinolin-4-ylmethoxy)benzenesulfonylamino]-2-[4-(4-trifluoromethylbenzyl)piperazin-1-yl]propionamide]",–,140

# Source: patent US8633196B2, “Benzenesulfonamide compounds, method for synthesizing same, and use thereof in medicine as well as in cosmetics” (Galderma Research & Development, priority 2009, dated 2014)
